# Data taken from patent publication US20120195934A1, “POLYMERIC GEL DELIVERY SYSTEM FOR PHARMACEUTICALS” (priority 2002, published 2012).
# Details: pellet in dialysis bag, plasma/0.1 M phosphate buffer pH 7.4 release medium, 37° C., HPLC
substance,measurement,value
morphine-diclofenac maleate [MDM],intact MDM in release medium,No intact MDM was detectable
